Source: US8247531B2, “Mutant epidermal growth factor polypeptides, nucleic acids, and uses therefor” (priority 2006, dated 2012)

Assays:
EGFR = EGFR (Homo sapiens, UniProt P00533); test: EGFR phosphorylation (Tyr1173 phospho-EGFR/total EGFR) by Western blot in NR6 fibroblast cells; format: cell-based; conditions: 1 min at 37° C., Tyr1173 phospho-EGFR
Method: EGFR phosphorylation in the presence of wt EGF and mutant clone 28 was evaluated. Cells were lysed and levels of Tyr1173 phospho-EGFR were measured by Western blot, probing with a phospho-specific rabbit polyclonal antibody (Santa Cruz Biotech). Blots were stripped and reprobed with rabbit polyclonal EGFR to determine the total amount of EGFR protein present. Westerns were developed using enhanced chemiluminescence, and band density of was quantitated using a Bio-Rad Fluor-S Imager. Data shown is the ratio of phosphorylated EGFR/total EGFR.

[1] = molecular target: T1, EGFR on NR6 fibroblast cells (Homo sapiens, UniProt P00533); test: Competition binding of soluble EGF to EGFR on NR6 fibroblast cells (flow cytometry, Alexa-488 labeled wt EGF)
T1 construct: expressed in transfected cells; host or cells: NR6 fibroblast cells
Method: (§1) Fluorescence intensity of cell surface labeling was measured by flow cytometry.
as §1
This mutant was tested using one of the binding assays described herein in which binding to EGFR expressed on cells is measured. […] Fluorescence intensity of cell surface labeling was measured by flow cytometry.

receptor phosphorylation (ratio of phosphorylated EGFR/total EGFR) (EGFR): increases receptor phosphorylation | increase in affinity over wt EGF ([1]; competition binding): 5 to 10 fold | Kd ([1]; competition with Alexa-488 labeled wt EGF, 2 hr at 4° C., read-out: Dissociation constants at half-maximal values): 0.26 ± 0.03 nM
Sequence: NSDSECPLSHDGYCLHGGVCMYIKAVDRYACNCVVGYIGERCQYRDLTWWGPR [clone 28]
